The results in this text go back to patent US6011070A, “Slow-onset, long-lasting dopamine reuptake blockers” (priority 1997, dated 2000).

Chains of the proteins cited; added tags and fusions are not shown.
UniProt P23977, whole entry: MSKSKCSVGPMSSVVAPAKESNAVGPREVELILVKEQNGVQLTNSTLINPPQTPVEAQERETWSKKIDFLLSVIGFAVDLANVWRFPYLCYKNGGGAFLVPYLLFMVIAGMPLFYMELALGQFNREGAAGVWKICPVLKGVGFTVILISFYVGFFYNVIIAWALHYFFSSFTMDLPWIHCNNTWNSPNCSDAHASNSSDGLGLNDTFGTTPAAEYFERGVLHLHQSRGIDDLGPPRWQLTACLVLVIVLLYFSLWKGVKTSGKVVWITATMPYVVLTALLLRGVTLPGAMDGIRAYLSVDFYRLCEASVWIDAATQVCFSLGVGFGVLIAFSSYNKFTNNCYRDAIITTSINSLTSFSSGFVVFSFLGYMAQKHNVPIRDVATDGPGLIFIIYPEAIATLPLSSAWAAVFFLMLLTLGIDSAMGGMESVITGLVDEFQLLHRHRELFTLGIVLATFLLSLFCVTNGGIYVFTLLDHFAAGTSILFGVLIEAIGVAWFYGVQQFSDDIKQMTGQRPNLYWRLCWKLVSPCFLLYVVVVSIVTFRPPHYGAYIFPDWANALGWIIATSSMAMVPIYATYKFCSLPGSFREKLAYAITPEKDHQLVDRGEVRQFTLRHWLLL

One may read the IC50 as the point on the concentration scale where inhibition reaches its midpoint.

The target of test [1] is T1, dopamine transporter (Rattus norvegicus, UniProt P23977).
T1 construct: from tissue
In words: Inhibition of binding of dopamine to the dopamine transporter (Example 4).

In test [2] the target is T1, dopamine transporter. In words: Inhibition of dopamine reuptake (Example 4). The test is classed as biochemical. The note with it: read-out: DA Uptake, inhibition of dopamine reuptake IC50.

`CNC1CC(c2ccc(Cl)c(Cl)c2)c2ccccc21` (centres unmarked) [Compound 5]: the IC50 on dopamine transporter [1] turned out to be 9.5 nM; on dopamine transporter [2] it was 9.8 nM.
